The experiment has as its target T1, CYP26A1 (Homo sapiens, UniProt O43174).
T1 sequence (O43174 1-497): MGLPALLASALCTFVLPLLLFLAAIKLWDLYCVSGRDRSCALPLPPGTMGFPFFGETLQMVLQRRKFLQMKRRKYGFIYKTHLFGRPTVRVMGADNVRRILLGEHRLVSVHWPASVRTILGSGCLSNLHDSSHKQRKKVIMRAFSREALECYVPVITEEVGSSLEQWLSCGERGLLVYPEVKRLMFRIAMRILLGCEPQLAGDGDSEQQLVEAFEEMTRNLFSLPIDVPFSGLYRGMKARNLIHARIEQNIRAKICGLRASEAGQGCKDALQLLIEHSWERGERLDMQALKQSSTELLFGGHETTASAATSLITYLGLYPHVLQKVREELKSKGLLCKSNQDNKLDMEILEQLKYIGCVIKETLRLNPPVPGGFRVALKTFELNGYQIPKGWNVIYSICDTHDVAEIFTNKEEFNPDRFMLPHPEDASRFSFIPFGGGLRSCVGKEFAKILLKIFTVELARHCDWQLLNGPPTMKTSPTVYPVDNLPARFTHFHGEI
Kind of experiment: CYP26A1 inhibition assay. Particulars: CYP26B1 IC50 versus CYP26A1 IC50.

In the case of `CC1(C)CCC(C)(C)c2cc(C3(c4ccc(/C=C/C(=O)O)cc4)OCCO3)ccc21` [Compound 22, (E)-3-(4-(2-(5,5,8,8-Tetramethyl-5,6,7,8-tetrahydronaphthalen-2-yl)-1,3-dioxolan-2-yl)phenyl)-acrylic acid], the “Selectivity towards CYP26A1 compared to CYP26B1 (ratio of IC50)” value is reported as greater than 40 fold.

For the origin of these results see article PMC4836378 (Journal of medicinal chemistry, 2016).
